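Compound exposure: 48 hours, 5 concentrations, 96-well plates. GI50: concentration for 50% inhibition of growth. Definition used: TGI = concentration required for complete inhibition of growth.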
What was measured:
Assay in all cases: NCI-60 cell line screen, 48 h
NCI-H322M lung = system: NCI-H322M lung
SN12C renal = system: SN12C renal
HL-60(TB) leukemia = system: HL-60(TB) leukemia
HOP-62 NSCLC = system: HOP-62 NSCLC
HCT-15 colon = system: HCT-15 colon
UACC-257 melanoma = system: UACC-257 melanoma
M14 melanoma = system: M14 melanoma
RPMI-8226 leukemia = system: RPMI-8226 leukemia
UO-31 renal = system: UO-31 renal
ACHN renal = system: ACHN renal
SW-620 colon = system: SW-620 colon
COLO 205 colon = system: COLO 205 colon
SNB-75 CNS = system: SNB-75 CNS
EKVX NSCLC = system: EKVX NSCLC
OVCAR-8 ovarian = system: OVCAR-8 ovarian
DMS 273 small cell lung = system: DMS 273 small cell lung
HCT-116 colon = system: HCT-116 colon
HT29 colon = system: HT29 colon
SK-MEL-5 melanoma = system: SK-MEL-5 melanoma
DMS 114 small cell lung = system: DMS 114 small cell lung
SF-268 CNS = system: SF-268 CNS
OVCAR-3 ovarian = system: OVCAR-3 ovarian
HCC-2998 colon = system: HCC-2998 colon
KM20L2 colon = system: KM20L2 colon
MALME-3M melanoma = system: MALME-3M melanoma
LOX IMVI melanoma = system: LOX IMVI melanoma
IGROV1 ovarian = system: IGROV1 ovarian
SK-MEL-28 melanoma = system: SK-MEL-28 melanoma
UACC-62 melanoma = system: UACC-62 melanoma
SK-OV-3 ovarian = system: SK-OV-3 ovarian
SF-295 CNS = system: SF-295 CNS
NCI-H23 lung = system: NCI-H23 lung
U251 CNS = system: U251 CNS
SK-MEL-2 melanoma = system: SK-MEL-2 melanoma
SR leukemia = system: SR leukemia
HOP-92 NSCLC = system: HOP-92 NSCLC
LXFL 529 NSCLC = system: LXFL 529 NSCLC
DLD-1 colon = system: DLD-1 colon
OVCAR-5 ovarian = system: OVCAR-5 ovarian
RXF 393 renal = system: RXF 393 renal
TK-10 renal = system: TK-10 renal
NCI-H460 lung = system: NCI-H460 lung
NCI-H226 lung = system: NCI-H226 lung
KM12 colon = system: KM12 colon

In the case of `CC1=CC(=O)OC2(C1)CC1CCC2CN1C` (stereo not drawn), the GI50 (NCI-H322M lung) is reported as greater than 100 µM, the TGI (NCI-H322M lung) is reported as greater than 100 µM and the GI50 (SN12C renal) is reported as greater than 100 µM. It also gave a TGI (SN12C renal) greater than 100 µM, a GI50 (HL-60(TB) leukemia) greater than 100 µM and a TGI (HL-60(TB) leukemia) greater than 100 µM. For the same compound, the GI50 (HOP-62 NSCLC) was greater than 100 µM, the TGI (HOP-62 NSCLC) was greater than 100 µM and the GI50 (HCT-15 colon) was greater than 100 µM. It also gave a TGI (HCT-15 colon) greater than 100 µM, a GI50 (UACC-257 melanoma) greater than 100 µM and a TGI (UACC-257 melanoma) greater than 100 µM. The GI50 (M14 melanoma) was greater than 100 µM, the TGI (M14 melanoma) was greater than 100 µM and the GI50 (RPMI-8226 leukemia) was greater than 100 µM. For the same compound, the TGI (RPMI-8226 leukemia) was greater than 100 µM, the GI50 (UO-31 renal) was greater than 100 µM and the TGI (UO-31 renal) was greater than 100 µM. For the same compound, the GI50 (ACHN renal) was greater than 100 µM, the TGI (ACHN renal) was greater than 100 µM and the GI50 (SW-620 colon) was greater than 100 µM. For the same compound, the TGI (SW-620 colon) was greater than 100 µM, the GI50 (COLO 205 colon) was greater than 100 µM and the TGI (COLO 205 colon) was greater than 100 µM. It also gave a GI50 (SNB-75 CNS) greater than 100 µM, a TGI (SNB-75 CNS) greater than 100 µM and a GI50 (EKVX NSCLC) greater than 100 µM. It also gave a TGI (EKVX NSCLC) greater than 100 µM, a GI50 (OVCAR-8 ovarian) greater than 100 µM and a TGI (OVCAR-8 ovarian) greater than 100 µM. For the same compound, the GI50 (DMS 273 small cell lung) was greater than 100 µM, the TGI (DMS 273 small cell lung) was greater than 100 µM and the GI50 (HCT-116 colon) was greater than 100 µM. For the same compound, the TGI (HCT-116 colon) was greater than 100 µM, the GI50 (HT29 colon) was greater than 100 µM and the TGI (HT29 colon) was greater than 100 µM. For the same compound, the GI50 (SK-MEL-5 melanoma) was greater than 100 µM, the TGI (SK-MEL-5 melanoma) was greater than 100 µM and the GI50 (DMS 114 small cell lung) was greater than 100 µM. The TGI (DMS 114 small cell lung) was greater than 100 µM, the GI50 (SF-268 CNS) was greater than 100 µM and the TGI (SF-268 CNS) was greater than 100 µM. It also gave a GI50 (OVCAR-3 ovarian) greater than 100 µM, a TGI (OVCAR-3 ovarian) greater than 100 µM and a GI50 (HCC-2998 colon) greater than 100 µM. It also gave a TGI (HCC-2998 colon) greater than 100 µM, a GI50 (KM20L2 colon) greater than 100 µM and a TGI (KM20L2 colon) greater than 100 µM. The GI50 (MALME-3M melanoma) was greater than 100 µM, the TGI (MALME-3M melanoma) was greater than 100 µM and the GI50 (LOX IMVI melanoma) was greater than 100 µM. It also gave a TGI (LOX IMVI melanoma) greater than 100 µM, a GI50 (IGROV1 ovarian) greater than 100 µM and a TGI (IGROV1 ovarian) greater than 100 µM. It also gave a GI50 (SK-MEL-28 melanoma) greater than 100 µM, a TGI (SK-MEL-28 melanoma) greater than 100 µM and a GI50 (UACC-62 melanoma) greater than 100 µM. It also gave a TGI (UACC-62 melanoma) greater than 100 µM, a GI50 (SK-OV-3 ovarian) greater than 100 µM and a TGI (SK-OV-3 ovarian) greater than 100 µM. For the same compound, the GI50 (SF-295 CNS) was greater than 100 µM, the TGI (SF-295 CNS) was greater than 100 µM and the GI50 (NCI-H23 lung) was greater than 100 µM. It also gave a TGI (NCI-H23 lung) greater than 100 µM, a GI50 (U251 CNS) greater than 100 µM and a TGI (U251 CNS) greater than 100 µM. The GI50 (SK-MEL-2 melanoma) was greater than 100 µM, the TGI (SK-MEL-2 melanoma) was greater than 100 µM and the GI50 (SR leukemia) was greater than 100 µM. The TGI (SR leukemia) was greater than 100 µM, the GI50 (HOP-92 NSCLC) was greater than 100 µM and the TGI (HOP-92 NSCLC) was greater than 100 µM. The GI50 (LXFL 529 NSCLC) was greater than 100 µM, the TGI (LXFL 529 NSCLC) was greater than 100 µM and the GI50 (DLD-1 colon) was greater than 100 µM. The TGI (DLD-1 colon) was greater than 100 µM, the GI50 (OVCAR-5 ovarian) was greater than 100 µM and the TGI (OVCAR-5 ovarian) was greater than 100 µM. For the same compound, the GI50 (RXF 393 renal) was 65.3 µM, the TGI (RXF 393 renal) was greater than 100 µM and the GI50 (TK-10 renal) was greater than 100 µM. The TGI (TK-10 renal) was greater than 100 µM, the GI50 (NCI-H460 lung) was greater than 100 µM and the TGI (NCI-H460 lung) was greater than 100 µM. It also gave a GI50 (NCI-H226 lung) greater than 100 µM, a TGI (NCI-H226 lung) greater than 100 µM and a GI50 (KM12 colon) greater than 100 µM. For the same compound, the TGI (KM12 colon) was greater than 100 µM.
